# Source: PubChem BioAssay (Broad Institute)
# Cneo AK release – Cryptococcus neoformans cell lysis inducers, primary screen, AK release luminescence, single concentration; C. neoformans lysis, adenylate kinase release luminescence, 4 h; normalised: neutral wells 0, clomiphene wells 100; 0.2% of 360,000 active; AID 651654, 2012; lysis activity, % at 15 µM;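 active = mean lysis activity across replicates of at least 80%, whatever share of replicates individually reach that level; inactive = mean lysis activity below 80%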
#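 Assay system: Cryptococcus neoformans yeast cells / Dosing: single-point compound dose / Timing: 4 h at 37 °C static, read 1 h later / Measured by: luminescence of released adenylate kinase using an AK detection reagent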
# Yeast UUG start-1 – alters start codon recognition fidelity in yeast; S. cerevisiae UUG-firefly luciferase reporter, luminescence/redox ratio; activity score, % at 18.7 µM; actives 0.13% (n = 350,000); AID 602363;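 active = replicate mean at a twofold rise or more, about +100% in these data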;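 also: firefly luciferase made from a UUG start codon reports start codon fidelity; reporter light over untreated wells divided by growth signal over untreated wells; some hits fall short of that in this replicate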
# DENV2 CPE – inhibitors of DENV2 cytopathic effect, primary screen, cell-based, plate reader, single concentration; CPE inhibition, % at 9.99 µM; 1.7% of 350,000 active; AID 651640, 2012; DENV2-infected cells, cytopathic effect rescue; in the data active = CPE inhibition above about 20%, passing the limit was not always enough; inconclusive = no clear call, values can overlap the other calls; tested in BHK-21 cells;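 also: 0% = median of neutral control wells and 100% = median of positive control wells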
# E-selectin induc – E-selectin induction in HUVECs, primary screen, imaging, HUVEC, immunofluorescence imaging, single point; 0.37% of 260,000 active; P16581; activation, % at 7.58 µM; normalized: neutral wells 0, TNF-alpha wells 100;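 active = mean E-selectin-positive cell signal at least 10% of the positive control, reached in at least 60% of replicates, without over 20% cell loss; inconclusive = no rule given, readout overlaps actives, possibly toxicity-flagged; inactive = the rest, including those meeting only one limit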
#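 Test system – human umbilical vein endothelial cells (HUVEC), E-selectin induction · Input – 3,000 HUVEC seeded per well · Buffer or medium – EGM-2, gelatin · Compound dosing – single-point compound dose · Detection – immunofluorescence imaging · Measure – percent E-selectin-positive cells · Controls – TNF-alpha high, DMSO low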
# Yeast UUG start-2 – enhancers of UUG start codon usage in yeast, dose response, S. cerevisiae, UUG firefly luciferase, cherry-pick, set 2; 540 tested, under 10 active; shares compounds with Yeast UUG start-1; luminescence, 4 h; 100% means double the DMSO signal; activation, % at 38 µM;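 active = signal increase whose fitted curve reaches an absolute level of 40 at a concentration under 10 µM; inactive = activity opposite to the expected increase, or the rest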
# An asterisk follows results filed as active; i = inactive; ? = inconclusive; nt = no result; ! = not active in a repeat. In the library only some 1.8% were active in any assay of this set; here they are far more common.
# Codes – A = Cneo AK release; B = Yeast UUG start-1; C = DENV2 CPE; D = E-selectin induc; E = Yeast UUG start-2
C[C@@H]1CN([C@H](C)CO)S(=O)(=O)c2ccc(C#CCC3CCCC3)cc2O[C@@H]1CN(C)C(=O)c1cnccn1
  A = -3; B = 2; C = -14; D = 1; E = nt

CNC[C@@H]1Oc2cc(C#CC3CCCCC3)ccc2S(=O)(=O)N([C@@H](C)CO)C[C@@H]1C
  A = -1; B = 1; C = -4; D = 2; E = nt

C[C@H](CO)N1C[C@H](C)[C@@H](CN(C)C(=O)c2cnccn2)Oc2cc(C#CCC3CCCC3)ccc2S1(=O)=O
  A = -2; B = 121*!; C = 6; D = 0; E = -7

CNC[C@H]1Oc2cc(C#CC3CCCCC3)ccc2S(=O)(=O)N([C@H](C)CO)C[C@@H]1C
  A = 5; B = 161*; C = -2; D = 0; E = i

O=C(NCC[C@@H]1CC[C@@H](NC(=O)C2CCC2)[C@H](CO)O1)c1cnccn1
  A = 7; B = -14; C = 7; D = 0; E = nt

CCC(=O)N(C)C[C@H]1Oc2cc(-c3ccc(C#N)cc3)ccc2S(=O)(=O)N([C@@H](C)CO)C[C@H]1C
  A = 1; B = 11; C = -4; D = 0; E = nt

Cc1ccc(N2CC(C(=O)Nc3nnc(SCC(N)=O)s3)CC2=O)cc1 (stereo not given)
  A = 2; B = 164*; C = 0; D = -1; E = 0

C/C=C/c1cnc2c(c1)C(=O)N([C@@H](C)CO)C[C@@H](C)[C@@H](CN(C)C(=O)Cc1ccccn1)O2
  A = 3; B = 143*; C = -1; D = 0; E = i

C/C=C/c1cnc2c(c1)C(=O)N([C@H](C)CO)C[C@H](C)[C@@H](CN(C)C(=O)Cc1ccccn1)O2
  A = 0; B = 3; C = 3; D = 1; E = nt

CC(C)CC#Cc1cnc2c(c1)C(=O)N([C@H](C)CO)C[C@@H](C)[C@H](CN(C)Cc1ccccn1)O2
  A = 3; B = 144*; C = 11; D = 0; E = i

O=C(C1CCC1)N1C[C@H]2[C@@H](c3ccccc31)[C@H](CO)N2C(=O)c1ccccc1
  A = -2; B = 101*; C = 4; D = 0; E = i

O=C(C1CCC1)N1C[C@@H]2[C@H](c3ccccc31)[C@H](CO)N2C(=O)c1ccccc1F
  A = -4; B = 195*; C = 10; D = 0; E = i

C[C@@H]1CN([C@@H](C)CO)S(=O)(=O)c2ccc(C3=CCCC3)cc2O[C@@H]1CN(C)CC1CCOCC1
  A = nt; B = -8; C = nt; D = 0; E = nt

C[C@@H]1CN([C@@H](C)CO)S(=O)(=O)c2ccc(-c3cccnc3)cc2O[C@H]1CN(C)C(=O)c1cccc(F)c1
  A = 1; B = 3; C = -13; D = 0; E = nt

C[C@H]1CN([C@@H](C)CO)S(=O)(=O)c2ccc(-c3cccnc3)cc2O[C@@H]1CN(C)C(=O)c1cccc(F)c1
  A = 3; B = 214*; C = -5; D = 0; E = i

CC(C)CC#Cc1ccc2c(c1)O[C@@H](CN(C)C(=O)c1cccnc1)[C@@H](C)CN([C@@H](C)CO)S2(=O)=O
  A = -5; B = 121*; C = 6; D = 0; E = i

Cc1ccc(S(=O)(=O)N(C)C[C@H]2Oc3cc(-c4cccc(F)c4)ccc3S(=O)(=O)N([C@@H](C)CO)C[C@@H]2C)cc1
  A = -2; B = 106*; C = -8; D = 24; E = i

C[C@@H]1CN([C@H](C)CO)S(=O)(=O)c2ccc(-c3cccc(F)c3)cc2O[C@@H]1CN(C)S(=O)(=O)c1ccc(F)cc1
  A = -3; B = -15; C = -3; D = 0; E = nt

O=c1c2c(n3cnnc3n1-c1ccccc1)-c1ccccc1CC21CCCCC1
  A = 0; B = active; C = nt; D = nt; E = -9

COc1ccc2c3c([nH]c2c1)[C@@H](CO)N(C(=O)C1CC1)CC31CCN(S(C)(=O)=O)CC1
  A = nt; B = nt; C = -7; D = 0; E = nt

Cn1c(C(=O)O)c(C=O)c2ccccc21
  A = 1; B = -9; C = nt; D = 3; E = nt

Cc1c(C(=O)C(C)C)n(C)c2ccccc12
  A = -1; B = 435*; C = nt; D = nt; E = 18

C[C@H](CO)N1C[C@H](C)[C@H](CN(C)Cc2ccncc2)OCCCC[C@H](C)Oc2ccc(NC(=O)Nc3ccc(F)cc3)cc2C1=O
  A = 4; B = 7; C = 1; D = 0; E = nt

CC(=O)N1CSCC1C(=O)NNS(=O)(=O)c1ccccc1 (stereo not given)
  A = -2; B = 124*; C = ?; D = nt; E = -6

COc1ccc(C(C#N)N2CCC(c3ccccc3)=N2)cc1 (stereo not given)
  A = -6; B = 183*; C = -2; D = 1; E = -4

# Some values from the entries so far:
# For E-selectin induc, `CNC[C@@H]1Oc2cc(C#CC3CCCCC3)ccc2S(=O)(=O)N([C@@H](C)CO)C[C@@H]1C` shows 2
# For E-selectin induc, `C[C@@H]1CN([C@@H](C)CO)S(=O)(=O)c2ccc(C3=CCCC3)cc2O[C@@H]1CN(C)CC1CCOCC1` shows 0
# For Yeast UUG start-2, `CC(=O)N1CSCC1C(=O)NNS(=O)(=O)c1ccccc1` (stereo not given) shows -6
# For Yeast UUG start-1, `CNC[C@H]1Oc2cc(C#CC3CCCCC3)ccc2S(=O)(=O)N([C@H](C)CO)C[C@@H]1C` shows 161*

# Record cards, as listed above. Order of screens: Cneo AK release | Yeast UUG start-1 | DENV2 CPE | E-selectin induc | Yeast UUG start-2
# Profile of O=C(C1CCC1)N1C[C@H]2[C@@H](c3ccccc31)[C@H](CO)N2C(=O)c1ccccc1 = -2 | 101* | 4 | 0 | i
# Profile of CNC[C@H]1Oc2cc(C#CC3CCCCC3)ccc2S(=O)(=O)N([C@H](C)CO)C[C@@H]1C = 5 | 161* | -2 | 0 | i

# Continued.
# Codes – A = Cneo AK release; B = Yeast UUG start-1; C = DENV2 CPE; D = E-selectin induc; E = Yeast UUG start-2
COc1cc(C(C#N)N2N=C(c3ccccc3)CC2c2ccccc2)ccc1O (stereo not given)
  A = -3; B = -11; C = nt; D = nt; E = nt

CCN1CCN(Cc2ccc(NC(=O)c3ccc(C)c(NC(=O)N4CCNC4=O)c3)cc2C(F)(F)F)CC1
  A = 0; B = 131*!; C = 120*!; D = 0; E = 13

Cc1ccc(-c2nc3ccc(C)cn3c2Cc2ccsc2)cc1
  A = -2; B = -1; C = 0; D = 0; E = nt

Cc1ccc2nc(C(C)(C)C)c(Cc3ccsc3)n2c1
  A = 0; B = 153*; C = -13; D = 1; E = 6

Fc1cccc(C2NN=C(c3ccccc3)S2)c1 (stereo not given)
  A = -3; B = 267*; C = nt; D = nt; E = -13

Cc1ccc(C2=NNC(c3cccc(F)c3)S2)cc1 (stereo not given)
  A = nt; B = nt; C = -6; D = 6; E = nt

Cc1ccc(S(=O)(=O)N(C)C[C@H]2Oc3ccc(NS(C)(=O)=O)cc3CC(=O)N([C@@H](C)CO)C[C@@H]2C)cc1
  A = -3; B = -5; C = 0; D = 0; E = nt

O=C(CNC(=O)c1ccccc1Br)N/N=C/c1ccco1
  A = 5; B = 308*; C = -4; D = nt; E = -11

O=C(CNC(=O)c1ccccc1F)N/N=C/c1ccco1
  A = -1; B = -17; C = -6; D = 1; E = nt

COc1ccc2oc(C(=O)OCC(=O)N3CCCCC3)c(C)c2c1
  A = -2; B = -13; C = 5; D = 0; E = nt

COc1ccc2oc(C(=O)OCC(=O)NCCc3ccccc3)c(C)c2c1
  A = -1; B = -9; C = -2; D = -1; E = 0

COc1ccc2oc(C(=O)OCC(=O)N3CCN(C(C)=O)CC3)c(C)c2c1
  A = -2; B = -4; C = 8; D = 0; E = 1

CCOc1ccc2oc(C(=O)OCC(=O)NC(=O)NC)c(C)c2c1
  A = -2; B = -17; C = 1; D = 0; E = -4

CCC(=O)N1C[C@H](C)[C@@H](OC)CN(C)C(=O)c2ccc(NC(=O)Nc3ccccc3)cc2OC[C@H]1C
  A = 7; B = 21; C = 0; D = 0; E = nt

CO[C@@H]1CN(C)C(=O)c2ccc(NS(C)(=O)=O)cc2OC[C@@H](C)N(Cc2ccccc2)C[C@@H]1C
  A = 50; B = 3; C = 5; D = 0; E = nt

CCOc1ccccc1C(=O)NCC(=O)OCC(=O)NCCc1ccc(S(N)(=O)=O)cc1
  A = 0; B = 555*; C = nt; D = nt; E = 1

NS(=O)(=O)c1ccc(CCNC(=O)c2ccccc2OCc2ccc(F)cc2)cc1
  A = 0; B = -9; C = 4; D = 0; E = nt

CO[C@@H]1CN(C)C(=O)c2ccc(NC(=O)C3CCC3)cc2OC[C@@H](C)N(C(=O)NC(C)C)C[C@H]1C
  A = -4; B = -1; C = -8; D = 0; E = nt

CCOc1ccccc1Nc1nc2ccccc2[nH]1
  A = 1; B = 581*; C = nt; D = nt; E = -2

O=C1N[C@H](c2ccccc2)COCn2nncc2CC[C@H]1Cc1ccccc1
  A = 0; B = nt; C = -1; D = 0; E = nt

O=C(CSc1c[nH]c2ccccc12)N1CCCc2ccccc21
  A = 2; B = -5; C = 6; D = nt; E = nt
